Data as given in US8076338B2, “Kinase modulators and methods of use” (Exelixis, Inc., priority 2004, dated 2011).

By UniProt entry, the sequences of proteins in these tests, tags left out. Where a name states a change or a piece, a line headed by the entry shows the natural chain unless it says otherwise.
UniProt P31749: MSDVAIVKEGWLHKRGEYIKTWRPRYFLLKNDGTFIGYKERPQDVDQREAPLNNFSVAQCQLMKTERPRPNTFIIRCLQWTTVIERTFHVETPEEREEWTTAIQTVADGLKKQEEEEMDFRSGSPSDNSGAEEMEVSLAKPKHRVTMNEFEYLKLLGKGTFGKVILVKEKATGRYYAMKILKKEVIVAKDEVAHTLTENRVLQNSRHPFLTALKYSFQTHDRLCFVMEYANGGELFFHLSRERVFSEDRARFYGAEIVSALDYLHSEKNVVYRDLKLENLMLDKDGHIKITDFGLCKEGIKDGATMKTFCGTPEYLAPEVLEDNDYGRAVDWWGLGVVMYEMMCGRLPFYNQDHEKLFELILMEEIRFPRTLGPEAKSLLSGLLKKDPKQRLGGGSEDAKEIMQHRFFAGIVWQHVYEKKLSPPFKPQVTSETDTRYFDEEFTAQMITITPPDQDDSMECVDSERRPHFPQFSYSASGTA

Biological target: AktK (Homo sapiens, UniProt P31749)
Assay: Luciferase-coupled chemiluminescence kinase assay (ATP consumption)
Assay type: biochemical
Conditions: Table 1; class symbols per key; read-out: AKT-1 IC50
Description: One measure of inhibition is Ki. […] The Ki for a compound is determined from the IC50 based on three assumptions. First, only one compound molecule binds to the enzyme and there is no cooperativity. […] Third, the enzymatic rate of the enzyme-inhibitor complex is zero. The rate data (i.e. compound concentration) are fitted to the equation: […]
Luciferase-Coupled Chemiluminescence Assay Protocol
Kinase activity is measured as the percent of ATP consumed following the kinase reaction using luciferase-luciferin-coupled chemiluminescence. Reactions were conducted in 384-well white, medium binding microtiter plates (Greiner). Kinase reactions were initiated by combining test compounds, ATP and kinase in a 20 uL volume. The reaction mixture was incubated at ambient temperature for 3 hrs. For p70S6K and/or AktK, 2.5-5 nM of the enzyme was pre-incubated with compound in 20 mM Tris pH 7.5, 10 mM MgCl2, 0.03% TX-100, and 1 mM DTT for 30 minutes at room temperature. Following the kinase reaction, a 20 μL aliquot of luciferase-luciferin mix was added and the chemiluminescence signal measured using a Victor^2 plate reader (Perkin Elmer). […] Total ATP consumption was limited to 25-60% and the IC50 values correlate well with those determined by radiometric assays.

IC50: 100 to 1000 nM
Substance: 3-[4-(3-Bromo-1H-pyrazolo[3,4-d]pyrimidin-4-yl)piperazin-1-yl]-4-methyl-N-phenyl-5-[(2-pyrrolidin-1-ylethyl)amino]benzamide [Example 45]
